The text below walks through data of PMC5153249.

Chains of the proteins cited; added tags and fusions are not shown.
UniProt P20459, whole entry, chain 1 of 3: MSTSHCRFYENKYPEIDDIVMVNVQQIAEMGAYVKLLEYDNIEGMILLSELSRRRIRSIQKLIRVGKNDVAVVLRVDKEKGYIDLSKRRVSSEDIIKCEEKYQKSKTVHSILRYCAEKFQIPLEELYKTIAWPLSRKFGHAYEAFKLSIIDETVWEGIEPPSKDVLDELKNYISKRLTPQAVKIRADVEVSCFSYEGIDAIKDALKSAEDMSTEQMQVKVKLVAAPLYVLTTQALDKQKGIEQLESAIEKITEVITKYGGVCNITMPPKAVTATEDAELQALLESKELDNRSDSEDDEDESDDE

Series [1] concerns the target ternary complex (eIF2•GDPNP•[35S]-Met-tRNAi) (yeast) (UniProt P20459). In words: native gel or EMSA; 40S subunits (10-320 nM) titrated against TC (200 nM eIF2, 1 mM GDPNP, 1 nM [35S]-Met-tRNAi) with 1 µM eIF1 and 1 µM eIF1A, no mRNA, no eIF3; 1X Recon buffer, 26 °C, 2 h; apparent KD, Langmuir fit.
Series [2] shares this target. In words: native gel or EMSA; as a3 but with 500 nM eIF3 (WT or the variant named in the row's quantity), no mRNA; apparent KD, Langmuir fit. For orientation: In EMSA bound probe runs differently from free probe, usually more slowly.
For series [3], the system named is eIF3 (c Box12-SPW) (Saccharomyces cerevisiae). In words: EMSA. Particulars: mean of 2; Met-charged tRNAi; uncapped mRNA; 30 mM HEPES-KOH pH 7.4, 100 mM KOAc, 3 mM Mg(OAc)2, 2 mM DTT, 1 mM GDPNP, 26 C, 2 h; native 4% THEM gel.
In series [4] the test system is eIF3 (b rnp1) (Saccharomyces cerevisiae). Kind of series: EMSA. To be noted: Met-charged tRNAi, 30 mM HEPES-KOH pH 7.4, 100 mM KOAc, 3 mM Mg(OAc)2, 2 mM DTT, 1 mM GDPNP, 26 C, 2 h, native 4% THEM gel.
Series [5] concerns eIF3 (b prt1-1) (Saccharomyces cerevisiae). In words: EMSA. Particulars: mean of 2, Met-charged tRNAi, 30 mM HEPES-KOH pH 7.4, 100 mM KOAc, 3 mM Mg(OAc)2, 2 mM DTT, 1 mM GDPNP, 26 C, 2 h, native 4% THEM gel.
In series [6] the test system is yeast 43S PIC: 40S+eIF1+eIF1A+eIF2 (Met-tRNAi TC); for mRNA recruitment also eIF5, eIF4A, eIF4B, eIF4E-eIF4G (Saccharomyces cerevisiae). In words: EMSA. Particulars: Met-charged; 30 mM HEPES-KOH pH 7.4, 100 mM KOAc, 3 mM Mg(OAc)2, 2 mM DTT, 1 mM GDPNP, 26 C, 2 h; native 4% THEM gel.
Series [7] has as its system eIF3 (a H725P) (Saccharomyces cerevisiae). Kind of series: EMSA. To be noted: mean of 2; Met-charged tRNAi; 30 mM HEPES-KOH pH 7.4, 100 mM KOAc, 3 mM Mg(OAc)2, 2 mM DTT, 1 mM GDPNP, 26 C, 2 h; native 4% THEM gel.
The test system of series [8] is eIF3 (a R731I) (Saccharomyces cerevisiae). Kind of series: EMSA. To be noted: mean of 2; Met-charged tRNAi; 30 mM HEPES-KOH pH 7.4, 100 mM KOAc, 3 mM Mg(OAc)2, 2 mM DTT, 1 mM GDPNP, 26 C, 2 h; native 4% THEM gel.

Take “40S ribosomal subunit with eIF1 and eIF1A (40S•eIF1•eIF1A) (from UniProt P32911 1-108; P38912 1-153) (complex)”: the Kd in series [1] was found to be 104 nM. In addition, in series [2], the KD in the presence of WT eIF3 came out at 15 nM, the fold weakening of KD in the presence of prt1-1 eIF3 against WT eIF3 worked out at 3 fold, the fold weakening of KD in the presence of rnp1 eIF3 against WT eIF3 is 2 fold and the fold weakening of KD in the presence of the a/b/c sub-complex against WT eIF3 stood at 3 fold.
Turning to “48S PIC (40S rRNA + Met-tRNAi + AUG model mRNA)”, the Kd stood at 69 nM in series [3]; 158 nM in series [4] (mean of 2, uncapped mRNA); 104 nM in series [5] (uncapped mRNA).
Consider initiator tRNAiMet, for which, in series [6], the Kd is 104 nM.
For the substance 43S PIC (40S rRNA + Met-tRNAi), the Kd in series [4] (mean of 3) worked out at 110 nM; in series [7], 79 nM; in series [5], 83 nM; in series [8] it was 113 nM.
